# Earlier results as cited in article PMC9019904, “AD Informer Set: Chemical tools to facilitate Alzheimer's disease drug discovery” (Alzheimer's & Dementia : Translational Research & Clinical …, 2022).
# Test system: protein product expressed by the gene target
# Conditions: cited from earlier work
smiles,measurement,value
COc1cc2c(cc1OC)C(=O)C(CC1CCN(Cc3ccccc3)CC1)C2.Cl (stereo not shown) [Donepezil Hydrochloride (E2020)],Reported on-target biochemical potency (nM): AChE,11.6 nM
